For assay [1], the target named is T1, Human CXCR2 (Homo sapiens, UniProt P25025). The experiment in a line: Tango CXCR2-bla U2OS cell-based β-arrestin recruitment assay. Set-up: The beta-arrestin/TEV protease fusion and the beta-lactamase reporter are separate parts of the cell line. To be noted: comparison with comparators. An excerpt: Cells were thawed, propagated, cultured and frozen according to the manufacturer's directions.
Preparation of Tango™ CXCR2-bla U2OS cells for use in cell-based assays: The manufacturer's protocol was altered to make use of 96-well plates instead of 384-well plates. Briefly, dividing cells were harvested one day prior to use. Cells were harvested and resuspended in assay medium (100% FreeStyle™ Expression Medium; Life Technologies; Cat #12338-018) at a viable cell density of 312,500 cells/mL. 128 μL of cell suspension was added per well in 96-well black-walled, clear bottom tissue culture-treated plates. Cells were incubated for 16-20 hrs at 37° C. in an atmosphere of 5% CO2 prior to use in assays.
Tango™ assay procedure: Assays were set up and run as described in the manufacturer's protocol. For antagonist assays, agonists were used at concentrations in the EC50-EC80 range. Assays were read using a FlexStation® 3 (Molecular Devices) fluorescence plate reader configured with the parameters given in Table 4. The blue/green emission ratio for each well was calculated by dividing the blue emission values by the green emission values. All inhibition curves were fitted using a four-parameter dose-response using GraphPad Prism™ (Version 7.01).
The Human CXCR2 Tango™ cell line was used to assess the ability of antibody BKO-4A8-101c to inhibit β-arrestin recruitment to agonist-activated CXCR2. All human ELR+ chemokine CXCR2 ligands were tested in antagonist dose response assays using calculated EC50 values of agonist.
The commercially available reporter cell line Tango™ CXCR2-bla U2OS (ThermoFisher Scientific) was used to assess the ability of the anti-CXCR2 antibodies to inhibit β-arrestin recruitment to agonist-activated CXCR2. Agonists were provided at their assay EC50 concentration for antagonist assays.
(In general: Recruitment of arrestin is a read-out of receptor activation apart from second messengers.)

By UniProt entry, the sequences of proteins in these tests, tags left out.
UniProt P25025, whole entry: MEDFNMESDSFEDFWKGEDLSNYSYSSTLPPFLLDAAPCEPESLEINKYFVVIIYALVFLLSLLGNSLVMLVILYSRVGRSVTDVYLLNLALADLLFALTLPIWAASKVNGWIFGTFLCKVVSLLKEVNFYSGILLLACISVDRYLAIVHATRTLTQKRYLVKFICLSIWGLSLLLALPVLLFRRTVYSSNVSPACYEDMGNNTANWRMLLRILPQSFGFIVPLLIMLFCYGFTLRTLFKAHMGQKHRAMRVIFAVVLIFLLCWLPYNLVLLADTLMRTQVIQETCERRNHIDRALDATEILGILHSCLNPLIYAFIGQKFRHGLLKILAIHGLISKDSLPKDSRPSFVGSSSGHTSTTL

In assay [2] the target is T1, Human CXCR2. The assay can be described thus: Calcium flux assay, HTS002C-CHEMISCREEN human CXCR2 calcium-optimized cell line. The class given is cell-based. The procedure:
One of the signaling pathways downstream of CXCR2 activation that has a role in cell chemotaxis is characterized by calcium mobilization (flux). The ability of BKO-4A8-101c to inhibit human CXCR2 ligand-induced calcium flux was tested in the commercially available HTS002C-CHEMISCREEN™ human CXCR2 chemokine receptor calcium-optimized cell line.
The Fluo-4 NW calcium assay kit (Life Technologies) was used according to manufacturer's protocol for in-cell measurement of calcium mobilization, which was read using a FLIPR Tetra high-throughput cellular screening system (Molecular Devices). The peak response minus the basal response from each well was used to determine inhibition dose response curves fitting a four-parameter logistic equation and IC50 values.
A general note: Calcium assays in cells follow changes in intracellular calcium, usually with a dye or a luminescent sensor.

Take `CC[C@@H](Nc1c(Nc2cccc(C(=O)N(C)C)c2O)c(=O)c1=O)c1ccc(C)o1` [Antagonist 6, SCH 527123, reference compound]: the “CXCL1 Maximal Inhibition %” value at Human CXCR2 [1] (CXCL1 at EC50) is recorded as 99%; on Human CXCR2 [2] (CXCL1 at EC50), 96%. For the same compound, on Human CXCR2 [1] (CXCL5 at EC50), the “CXCL5 Maximal Inhibition %” value is on record as 97%. Moreover, the “CXCL8 Maximal Inhibition %” value on Human CXCR2 [1] (CXCL8 at EC50) and on Human CXCR2 [2] (CXCL8 at EC50) was 98% in each case.

Source of the values: patent publication US12018084B2, “Anti-CXCR2 antibodies and uses thereof” (Cephalon LLC, priority 2018, dated 2024).
